Source: the Human Domainome abundance scans (Beltran et al. 2025)
± gives the uncertainty stated by the source.

B1: Tyrosine-protein kinase ABL1, residues 64 to 120; numbered along this chain, P00519 (parent)
chain: NLFVALYDFVASGDNTLSITKGEKLRVLGYNHNGEWCEAQTKNGQGWVPSNYITPVN

Variants of: B1
Test: abundance fitness (aPCA) (normalised: wild type 0, dead -1); higher = more abundant; growth selection in yeast, the domain comes from the species named
Settings: Homo sapiens

| Variant | abundance fitness |
| --- | --- |
| K24N | -0.707 ± 0.26 |
| K24P | -0.493 ± 0.14 |
| K24Q | -0.559 ± 0.19 |
| K24R | -0.006 ± 0.073 |
| K24S | -0.086 ± 0.12 |
| K24T | -0.291 ± 0.13 |
| K24W | -0.326 ± 0.13 |
| K24Y | -0.262 ± 0.083 |
| L25A | -0.345 ± 0.1 |
| L25C | -0.038 ± 0.083 |
| L25D | -0.774 ± 0.34 |
| L25E | -0.998 ± 0.2 |
| L25G | -0.108 ± 0.067 |
| L25H | -0.874 ± 0.4 |
| L25I | -0.132 ± 0.17 |
| L25K | -0.701 ± 0.32 |
| L25M | -0.077 ± 0.1 |
| L25N | -0.877 ± 0.45 |
| L25Q | -0.989 ± 0.22 |
| L25R | -0.879 ± 0.11 |
| L25T | -0.391 ± 0.22 |
| L25V | 0.013 ± 0.063 |
| L25W | -1.11 ± 0.21 |
| L25Y | -0.065 ± 0.14 |

| Variant | abundance fitness |
| --- | --- |
| R26C | -0.202 ± 0.18 |
| R26D | 0.088 ± 0.09 |
| R26E | 0.087 ± 0.091 |
| R26F | -0.399 ± 0.11 |
| R26G | -0.133 ± 0.07 |
| R26H | -0.015 ± 0.16 |
| R26I | -0.131 ± 0.13 |
| R26K | 0.311 ± 0.09 |
| R26L | -0.07 ± 0.084 |
| R26N | 0.658 ± 0.34 |
| R26P | -0.892 ± 0.36 |
| R26Q | -0.394 ± 0.22 |
| R26S | 0.034 ± 0.097 |
| R26T | 0.274 ± 0.09 |
| R26V | -0.1 ± 0.087 |
| R26W | -0.094 ± 0.075 |
| V27A | -0.148 ± 0.079 |
| V27C | -0.175 ± 0.14 |
| V27E | -0.996 ± 0.24 |
| V27G | -0.389 ± 0.086 |
| V27H | -0.435 ± 0.32 |
| V27I | -0.055 ± 0.079 |
| V27K | -0.647 ± 0.22 |
| V27L | -0.087 ± 0.076 |

| Variant | abundance fitness |
| --- | --- |
| V27M | 0.023 ± 0.085 |
| V27N | -0.334 ± 0.14 |
| V27P | -0.2 ± 0.11 |
| V27Q | -0.706 ± 0.19 |
| V27S | -0.21 ± 0.093 |
| V27T | -0.322 ± 0.13 |
| V27W | -0.313 ± 0.12 |
| V27Y | -0.914 ± 0.4 |
| L28A | -0.141 ± 0.1 |
| L28C | -0.033 ± 0.064 |
| L28D | -0.198 ± 0.14 |
| L28E | -0.177 ± 0.073 |
| L28F | -0.441 ± 0.22 |
| L28G | -0.323 ± 0.055 |
| L28H | -0.625 ± 0.37 |
| L28K | -0.264 ± 0.12 |
| L28M | 0.166 ± 0.1 |
| L28N | -0.07 ± 0.094 |
| L28P | -0.708 ± 0.24 |
| L28Q | -0.188 ± 0.11 |
| L28R | 0.022 ± 0.072 |
| L28S | -0.115 ± 0.057 |
| L28T | -0.163 ± 0.13 |
| L28V | -0.088 ± 0.082 |

| Variant | abundance fitness |
| --- | --- |
| L28W | -0.307 ± 0.075 |
| L28Y | -0.069 ± 0.12 |
| G29C | -0.237 ± 0.17 |
| G29D | 0.062 ± 0.12 |
| G29E | -0.168 ± 0.1 |
| G29F | -0.443 ± 0.093 |
| G29K | 0.042 ± 0.099 |
| G29L | -0.146 ± 0.07 |
| G29M | -0.034 ± 0.068 |
| G29N | -0.111 ± 0.21 |
| G29P | -0.883 ± 0.13 |
| G29R | -0.103 ± 0.091 |
| G29S | -0.059 ± 0.074 |
| G29T | -0.058 ± 0.1 |
| G29V | -0.214 ± 0.084 |
| Y30A | -0.165 ± 0.09 |
| Y30C | -0.219 ± 0.09 |
| Y30D | -0.201 ± 0.13 |
| Y30E | 0.169 ± 0.095 |
| Y30F | -0.075 ± 0.098 |
| Y30G | -0.022 ± 0.07 |
| Y30H | -0.348 ± 0.22 |
| Y30K | -0.179 ± 0.14 |
| Y30L | -0.149 ± 0.053 |

| Variant | abundance fitness |
| --- | --- |
| Y30M | -0.021 ± 0.095 |
| Y30N | -0.177 ± 0.12 |
| Y30P | -0.118 ± 0.11 |
| Y30Q | 0.058 ± 0.076 |
| Y30R | 0.065 ± 0.068 |
| Y30S | 0.072 ± 0.078 |
| Y30T | -0.052 ± 0.087 |
| Y30V | -0.068 ± 0.062 |
| Y30W | -0.117 ± 0.099 |
| N31A | 0.12 ± 0.062 |
| N31C | 0.214 ± 0.11 |
| N31D | 0.115 ± 0.082 |
| N31E | 0.012 ± 0.093 |
| N31F | -0.447 ± 0.13 |
| N31G | 0.082 ± 0.074 |
| N31H | -0.023 ± 0.16 |
| N31I | -0.102 ± 0.39 |
| N31K | 0.26 ± 0.081 |
| N31L | -0.162 ± 0.085 |
| N31M | -0.512 ± 0.15 |
| N31P | -0.27 ± 0.12 |
| N31Q | -0.119 ± 0.098 |
| N31R | 0.064 ± 0.061 |
| N31S | 0.031 ± 0.053 |

| Variant | abundance fitness |
| --- | --- |
| N31T | 0.064 ± 0.1 |
| N31V | -0.188 ± 0.084 |
| N31Y | -0.052 ± 0.16 |
| H32C | 0.407 ± 0.12 |
| H32D | 0.112 ± 0.083 |
| H32E | 0.137 ± 0.085 |
| H32F | -0.137 ± 0.068 |
| H32I | -0.033 ± 0.14 |
| H32K | 0.206 ± 0.11 |
| H32L | -0.05 ± 0.06 |
| H32N | -0.306 ± 0.18 |
| H32P | 0.07 ± 0.057 |
| H32Q | 0.44 ± 0.12 |
| H32R | 0.106 ± 0.066 |
| H32S | -0.03 ± 0.083 |
| H32T | 0.053 ± 0.12 |
| H32V | -0.114 ± 0.064 |
| H32W | -0.057 ± 0.056 |
| H32Y | 0.041 ± 0.096 |
| N33A | 0.009 ± 0.085 |
| N33C | -0.42 ± 0.2 |
| N33D | -0.068 ± 0.12 |
| N33E | -0.003 ± 0.099 |
| N33F | -0.044 ± 0.14 |

| Variant | abundance fitness |
| --- | --- |
| N33G | 0.065 ± 0.072 |
| N33H | 0.062 ± 0.11 |
| N33I | -0.364 ± 0.075 |
| N33L | -0.234 ± 0.056 |
| N33M | -0.21 ± 0.084 |
| N33P | -0.408 ± 0.1 |
| N33Q | -0.066 ± 0.06 |
| N33R | -0.187 ± 0.075 |
| N33S | -0.032 ± 0.068 |
| N33T | 0.173 ± 0.098 |
| N33V | -0.303 ± 0.087 |
| N33W | -0.389 ± 0.11 |
| N33Y | -0.742 ± 0.24 |
| G34A | 0.04 ± 0.07 |
| G34C | -0.172 ± 0.12 |
| G34D | 0.003 ± 0.11 |
| G34E | 0.154 ± 0.086 |
| G34F | -0.198 ± 0.082 |
| G34H | 0.037 ± 0.28 |
| G34I | -0.426 ± 0.27 |
| G34K | 0.112 ± 0.061 |
| G34L | -0.228 ± 0.085 |
| G34M | -0.096 ± 0.16 |
